## Measured vapor pressure values of organic chemicals

Vapor pressure is log10 of mmHg; the set covers 15 to 30 °C, mostly 20 to 25 °C.
Cells with "n/a" have no entry in this list.
"via" names the databases from which the curators took the value.

SMILES,name,log VP (log10 mmHg),via
CC1=CC(=O)C(C(C)C)CC1 (stereo unspecified),Piperitone,-1.151,eChemPortal
Cc1ncc([N+](=O)[O-])n1CCO,Metronidazole,-6.523,OCHEM
NCCC(=O)O,beta-Alanine,-7.296,eChemPortal
Cc1cc(O)c(C)c(C)c1O,"2,3,5-Trimethylhydroquinone",-5.346,eChemPortal
CCB(CC)CC,Triethylborane,1.701,eChemPortal
Clc1cc(Cl)c(-c2c(Cl)ccc(Cl)c2Cl)c(Cl)c1Cl,"2,2',3,3',4,6,6'-Heptachlorobiphenyl",-4.943,OCHEM
FC(F)(F)C(F)(F)C(F)(C(F)(F)F)C(F)(F)C(F)(F)F,n/a,2.32,ICF
CCN1CCCC1=O,1-Ethyl-2-pyrrolidinone,-0.759,eChemPortal
CCCCCCC(Cl)CCCC (stereo unspecified),5-Chloroundecane,-1.514,OCHEM
C=C(C)C(=O)OCCN=C=O,2-Isocyanatoethyl methacrylate,-0.726,eChemPortal
CC(=O)Oc1c(C)c(C)c2c(c1C)CCC(C)(CCCC(C)CCCC(C)CCCC(C)C)O2 (stereo unspecified),Acetic acid alpha-tocopherol,-10.19,eChemPortal
CCCOCC(C)OCC(C)O (stereo unspecified),Butyl dipropasol solvent,-0.921,eChemPortal
OCC1CCCCO1 (stereo unspecified),(Oxan-2-yl)methanol,-1,OCHEM
C=CCCCCO,5-Hexen-1-ol,1.519,eChemPortal
C=CCCCCCCCCCCCCCCCCCCCCCCCCCCCC,1-Triacontene,-7.152,OFMPub
Clc1ccc(-c2c(Cl)c(Cl)c(Cl)c(Cl)c2Cl)cc1Cl,"2,3,3',4,4',5,6-Heptachlorobiphenyl",-5.836,OCHEM
CC1=CCC(C(C)C)CC1 (stereo unspecified),"Cyclohexene, 1-methyl-4-(1-methylethyl)-",0.021,eChemPortal
CC(O)C#CC(C)O (stereo unspecified),"Hex-3-yne-2,5-diol",-2.886,eChemPortal
CCCCCCCCCCCCC(Cl)CC (stereo unspecified),3-Chloropentadecane,-3.455,OCHEM
CN(C)CCOCCN(C)C,Bis[2-(dimethylamino)ethyl]ether,-0.351,eChemPortal
CC1OC1C (stereo unspecified),"2,3-Epoxybutane",2.267,eChemPortal
CC/C=C\C#N,(2Z)-2-Pentenenitrile,1.225,eChemPortal
O=S(=O)([O-])CCN(O)CCS(=O)(=O)[O-].[Na+].[Na+],n/a,-6.397,eChemPortal
CCN(CC)CCNC(=O)c1cc(Cl)c(N)cc1OC,Metoclopramide,-8.337,OCHEM
CCCCCCCCC(Cl)CCCC (stereo unspecified),5-Chlorotridecane,-2.504,OCHEM
C/C=C(\C)C(=O)OCCC(C)CCC=C(C)C (stereo partly drawn),Citronellyl tiglate,-2.075,eChemPortal
CO[Si](C)(OC)OC,Trimethoxymethylsilane,1.06,eChemPortal
Clc1cc(Cl)c(Cl)c(-c2c(Cl)cc(Cl)c(Cl)c2Cl)c1,"2,2',3,3',4,5',6-Heptachlorobiphenyl",-5.275,OCHEM
CCO[Si](C)(CCCOCC1CO1)OCC (stereo unspecified),3-(Methyldiethoxysilyl)propyl glycidyl ether,-2.502,eChemPortal
Clc1cc(Cl)cc(-c2c(Cl)cc(Cl)cc2Cl)c1,"2,3',4,5',6-Pentachlorobiphenyl",-4.554,OCHEM
Clc1cc(-c2cccc(Cl)c2Cl)cc(Cl)c1Cl,"2,3,3',4',5'-Pentachlorobiphenyl",-5.235,OCHEM
CCNC(=O)[C@@H](C)OC(=O)Nc1ccccc1,Carbetamide,-8.648,OCHEM
Clc1cc(-c2ccccc2)cc(Cl)c1Cl,"3,4,5-Trichlorobiphenyl",-4.105,OCHEM
CC1CCCCC1O (stereo unspecified),2-Methylcyclohexanol,0.078,eChemPortal
CCOC(F)(F)C(F)(F)C(F)(F)F,Ethyl heptafluoropropyl ether,2.424,ICF
C=C(C)OC(C)=O,Isopropenyl acetate,1.766,"PubChem, eChemPortal"
c1c[nH]cn1,Imidazole,-2.648,"PubChem, eChemPortal"

Excerpt, the final 2 entries:

| SMILES | name | log VP (log10 mmHg) | via |
|---|---|---|---|
| C=C(C)OC(C)=O | Isopropenyl acetate | 1.766 | PubChem, eChemPortal |
| c1c[nH]cn1 | Imidazole | -2.648 | PubChem, eChemPortal |

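The numbers are reported measurements, compiled and curated for the OPERA QSAR suite. A listed value is a point estimate from one report or more. Method, purity and exact conditions of the single measurements are not given. The measured form (salt, isomer or mixture) is not always the one drawn. Some entries may be limits or estimates that an upstream database listed as plain numbers.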

Values as listed in the OPERA 2.9 repository of K. Mansouri.